Earlier results in publication PMC11634579, “Network pharmacology, experimental validation and pharmacokinetics integrated strategy to reveal pharmacological mechanism of goutengsan on methamphetamine dependence” (Frontiers in Pharmacology, 2024).

Parameters: method as in Ru et al., 2014
Details: obtained from TCMSP database; ref Ru et al., 2014; cited from earlier work
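For BBB (blood–brain–barrier) in this document: unitless TCMSP predicted score with screening cut-off BBB at least 0.3.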

In the case of Alexandrine-qt, the “BBB (blood–brain–barrier)” value is given as 0.88 and the “OB% (oral bioavailability)” value is given as 36.91%.
In the case of Euchrenone, the “BBB (blood–brain–barrier)” value is listed as 0.39 and the “OB% (oral bioavailability)” value is listed as 30.29%.
